# What was measured:
# oxygenated myoglobin = conditions: 20 °C; cited from earlier work
# oxygenated hemoglobin = conditions: 20 °C; cited from earlier work
# apo-myoglobin [1] = assay: NO-ferroheme transfer from RBC ghost membranes to apo-myoglobin; conditions: 15 μM hemin, 50 μM NO, 150 μM GSH; 20 μM apo-myoglobin; 21 °C
# Method: (§1) FIGS. 10A-10B show other transfers of NO-ferroheme. […] 25 μM ferric heme, 50 μM glutathione, and 50 μM NO were added to 75 μM albumin under deaerated conditions. Addition of RBC ghost membranes results in typical light scattering due to turbidity from insoluble membranes. The mixture was centrifuged at 30,000 g for 2 hours, leaving behind NO-ferroheme in the albumin (hashed line), indicating little transfer to the membranes. FIG. 10B, Direct formation of NO-myoglobin from a mixture of RBC ghost membrane-solubilized NO-ferroheme (from 15 μM hemin, 50 μM NO, and 150 μM GSH) and 20 μM apo-myoglobin. Transfer experiments were conducted at 21 °C.
# (§2) Albumin can mediate vascular NO-ferroheme signaling by transferring from albumin to heme binding protein. To assess and model such transfer, NO-ferroheme albumin was added to an equivalent of apo-myoglobin in an anaerobic solution at 37 °C (FIG. 3E). […] The isosbestic points at 397, 522, and 593 nm indicate direct transfer without formation of any other species or intermediates. Direct formation of NO-myoglobin from apo-myoglobin with NO-ferroheme in membranes is also readily observed (FIG. 10B). […] Thus, direct transfer of NO-ferroheme from solubilizing membranes or albumin to another apo-hemoprotein, like sGC, is feasible.
# [2] = NO-ferroheme transfer from albumin to RBC ghost membranes; conditions: 75 μM albumin, 21 °C
# Method: as §1
# (§3) As labile heme (and thus potentially NO-ferroheme) can be found in membranes, the transfer of NO-ferroheme formed in RBC ghosts to albumin was qualitatively characterized. Ferric heme (25 μM), 50 μM glutathione, and 50 μM NO were added to RBC ghosts under anaerobic conditions at 37 °C (FIG. 3D). After subsequent incubation with albumin, the mixture was centrifuged at 30,000×g for 2 hours to remove membranes. […] Transfer of NO-ferroheme from membranes to albumin is unidirectional under these conditions (FIG. 10A).
# [3] = NO-ferroheme formation kinetics in red blood cell membrane ghosts (UV-Vis); conditions: role: product; 25 μM heme, 100 μM NO, no thiol, anoxic, room temperature, 10% red cell ghosts
# Method: Red cells were separated from the whole blood by sedimentation via centrifugation at 1000 g for 10 minutes. These packed red cells were then hemolyzed using 5 mM phosphate buffer, pH 8 (4.674 mM Na2HPO4+0.326 mM NaH2PO4) in the volume ratio of 1:40 for an hour. The mixture was spun at 35,000 g for 30 minutes at 20 °C and washed with the buffer repeatedly until the white ghosts were produced. The absence of hemoglobin was confirmed by taking the absorption of the ghosts in the range of 300-700 nm. Differential interface contrast microscopy images of the ghost membranes were taken via a Zeiss Axio Observer D1 Microscope. Images were collected and processed using ImageJ (1.44p).
# Heme is hydrophobic and can be solubilized in organic solvents like methanol. […] The use of RBC membrane ghosts enabled characterization of the NO-ferroheme product by low temperature electron paramagnetic resonance (EPR) spectroscopy. Both reactions (in the presence and absence GSH) give rise to a rhombic EPR spectrum characteristic of a five-coordinate NO-ferroheme species with g-values at 2.081, 2.054, and 2.012 for gmax, gmid, and gmin, respectively, and a three-line hyperfine splitting centered on gmin (^NOA=47 MHz, FIG. 2D).^45,46
# 25 μM heme and 100 μM NO were reacted in the red cell ghost system under anoxic conditions at room temperature in the absence of any thiol species. […]
# apo-myoglobin [4] = assay: NO-ferroheme transfer from albumin to apo-myoglobin; conditions: GSH 50, 125, 250 μM
# Method: NO-ferroheme in albumin was made using 25 μM home and 50 μM NO mixed for five minutes under anaerobic conditions, in pH 7.4 PBS buffer, in the presence of GSH (50, 125, 250 μM) before adding albumin. The NO-ferroheme was incubated with 25 mM albumin for 30 minutes before mixing with 30 μM apomyoglobin under anaerobic conditions. The kinetics were monitored for 330 minutes by UV-Vis absorption spectroscopy. No GSH dependence on the kinetics was observed.
# as §2
# albumin [5] = conditions: cited from earlier work
# heme-free (apo-) sGC = conditions: in vitro; cited from earlier work
# albumin [6] = assay: NO-ferroheme transfer from RBC membranes to serum albumin; conditions: 25 μM ferric heme, 50 μM glutathione, 50 μM NO, RBC ghosts, 37 °C
# Method: Heme (25 μM), 50 μM NO, and 50 μM GSH were reacted for 30 minutes in the presence of red cell membrane ghosts under anaerobic conditions. The sample was incubated for another 30 minutes at 37 °C after adding 75 μM albumin. After incubation, the sample was scanned for absorption in the Cary 50 UV-Vis spectrometer. The sample was subsequently spun at 30,000 g for two hours in a Sorvall® RC-5B centrifuge and the absorption spectrum of the supernatant was measured.
# as §3
Structure (SMILES),NO scavenging rate (oxygenated myoglobin),NO scavenging rate (oxygenated hemoglobin),direct formation of NO-myoglobin from NO-ferroheme in membranes (apo-myoglobin [1]),transfer of NO-ferroheme from albumin to membranes [2],calculated half-life of NO-ferroheme formation [3],GSH dependence of transfer kinetics (apo-myoglobin [4]),NO koff from NO-ferroheme in albumin binding pocket (albumin [5]) [s⁻¹],activation of apo-sGC (heme-free (apo-) sGC),transfer of NO-ferroheme from membranes to albumin (albumin [6])
[N]=O,6-8×10^7 M^−1s^−1,6-8×10^7 M^−1s^−1,,,,,,,
C=CC1=C(C)c2cc3[nH]c(cc4nc(cc5[nH]c(cc1n2)c(C)c5CCC(=O)O)C(CCC(=O)O)=C4C)c(C)c3C=C.[Fe+2],,,readily observed,"does not transfer to the membranes, but rather remains bound to albumin",about 4 minutes,No GSH dependence on the kinetics was observed,0.00014,can directly activate heme-free (apo-) sGC in vitro,demonstrating transfer from membranes to albumin

# — patent US20260382635A1, “NITROSYL-HEME FORMULATIONS FOR THE TREATMENT OF CARDIOVASCULAR CONDITIONS, HEMOLYSIS, AND THE STABILIZATION OF CELL-FREE HEME MOLECULES” (published 2026)
